Literature values, collected in patent publication US20100120787A1, “MODIFICATION OF AMYLOID-BETA LOAD IN NON-BRAIN TISSUE” (MODGENE, LLC, priority 2008, published 2010).

Cc1ccc(NC(=O)c2ccc(CN3CCN(C)CC3)cc2)cc1Nc1nccc(-c2cccnc2)n1 [STI-571]
absorption after oral administration (human, in vivo, po): well absorbed
change in pharmacokinetics on repeated dosing (repeated dosing): no significant change
